Measured values from PubChem BioAssay (NCI).
Several values for one entry are separate records, joined by “and”; a condition that tells them apart may be missing. Equal values may be shown once. This is a selection; strong and weak results do not stand in their true shares.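 How to read the values: 0–100, growth inhibition (40 = 60% inhibited); 0, no net growth; -100 to 0, cell death (-40 = 40% of starting cells died; -100 = all dead).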 Activity calls are given as the source filed them. How the source made its calls: active means growth percent below 10; inactive means the rest.

test system: MDA-MB-435 melanoma; assay: NCI-60 one-dose screen, 48 h (100 = growth as untreated, 0 = no growth, -100 = all killed); conditions: 10 µM unless noted

Compound | growth
CC1CCNP(=O)(N(CCCl)CCCl)O1 (stereo unspecified) | inactive: 100%
CCN(CCCl)CC1OC(O)C(O)C1O (stereo unspecified) | inactive: 112%
CN(CCCl)/N=N/c1nc2nc[nH]c(=O)c2[nH]1 | inactive: 100%
Nc1ccc(N(CCCl)CCCl)cc1 | inactive: 88.3%
c1cc(-c2nn[nH]n2)ccc1-c1nn[nH]n1 | inactive: 90.5%
CCCC1OP(N)(=O)OCC1CC (stereo unspecified) | inactive: 123% and inactive: 101%
CCOP(=S)(OCC)OCC | inactive: 106%
CCOP(=S)(OCC)SCCCl | inactive: 97.7%
CN(C)P1(Cl)=NP(Cl)(N(C)C)=NP(Cl)(N(C)C)=N1 (stereo unspecified) | inactive: 105%
Nc1ccc(CCCCOc2ccccc2)cc1 | inactive: 99.6%
O=[N+]([O-])c1cccc(Oc2ccc([N+](=O)[O-])cc2[N+](=O)[O-])c1 | active: -56.7%
CCN(CC)[P+](c1ccc(OC)cc1OC)(N(CC)CC)N(CC)CC | inactive: 19.1%
O=C(Nc1ccc([N+](=O)[O-])cc1)N(CCBr)CCBr | inactive: 94.5%
O=P1(N(CCCl)CCCl)Nc2ccccc2N1 | inactive: 106%
ClCCNCc1ccccc1 | inactive: 107%
O=C(O)/C=C\c1cccc(N(CCCl)CCCl)c1 | inactive: 114%
O=C(O[C@H]1CN2CCC1CC2)C1NCc2ccccc2[C@@H]1c1ccccc1 (stereo partly specified) | inactive: 104%
CC(=O)Nc1ccc([As](=O)(O)O)c(O)c1 | inactive: 101%
ClCCN1CCNCC1 | inactive: 104%

Compound | growth
Cc1cc([N+](=O)[O-])cc([N+](=O)[O-])c1O | inactive: 112%
O=C(OC1CN2CCC1CC2)c1ccccc1 (stereo unspecified) | inactive: 94%
O=C(c1ccc([N+](=O)[O-])cc1)N(CCCl)CCCl | inactive: 91.3%
CCCCCCCCCCNP(=S)(Cl)Cl | inactive: 102%
COc1cc([N+](=O)[O-])c(Nc2ccc(Cl)cc2[N+](=O)[O-])c([N+](=O)[O-])c1 | inactive: 90%
O=[As]c1ccc(S(=O)(=O)Nc2ccccc2)cc1 (stereo unspecified) | inactive: 65.3%
Cc1ccc(S(=O)(=O)CN(CCCl)CCCl)cc1 | inactive: 104%
CCCN(CCCl)C1c2ccccc2-c2ccccc21 | inactive: 97.8%
CC(Cl)CN(CC(C)Cl)C(=O)c1ccccc1 (stereo unspecified) | inactive: 107%
CC(Cl)CN(CC(C)Cl)C(=O)OCC(N)C(=O)O (stereo unspecified) | inactive: 114% and inactive: 103%
C[As](=O)(O)c1cccc(C(=O)O)c1 | inactive: 107%
Cc1ccc(S(=O)(=O)N(CCCN)CCCc2c(C)nc(N)[nH]c2=O)cc1 | inactive: 101%
Cn1c(COc2ccc([N+](=O)[O-])cc2[N+](=O)[O-])cnc1[N+](=O)[O-] | inactive: 95.3%
O=[N+]([O-])c1ccc(CCCCCCc2ccc([N+](=O)[O-])cc2[N+](=O)[O-])c([N+](=O)[O-])c1 | inactive: 99.1%
CCSC(O)C(Cl)(Cl)Cl (stereo unspecified) | inactive: 95.1%
O=[N+]([O-])c1cc(Cl)cc([N+](=O)[O-])c1O | inactive: 114%
OP1OCCO1 | inactive: 100%
N#CC(C#N)=C(C#N)N(CCCl)CCCl | inactive: 105%
CC[C@H](C)[C@@H]1NC(=O)/C(=C(\C)O)C1=O | inactive: 96.5%

test system: SW-620 colon; assay: as above; conditions: 10 µM unless noted

Compound | growth
CC1CCNP(=O)(N(CCCl)CCCl)O1 (stereo unspecified) | inactive: 88.3%
CCN(CCCl)CC1OC(O)C(O)C1O (stereo unspecified) | inactive: 108%
CN(CCCl)/N=N/c1nc2nc[nH]c(=O)c2[nH]1 | inactive: 105%
Nc1ccc(N(CCCl)CCCl)cc1 | inactive: 51.5%
c1cc(-c2nn[nH]n2)ccc1-c1nn[nH]n1 | inactive: 110%
CCCC1OP(N)(=O)OCC1CC (stereo unspecified) | inactive: 106% and inactive: 88.3%
CCOP(=S)(OCC)OCC | inactive: 106%
CCOP(=S)(OCC)SCCCl | inactive: 101%
CN(C)P1(Cl)=NP(Cl)(N(C)C)=NP(Cl)(N(C)C)=N1 (stereo unspecified) | inactive: 101%
Nc1ccc(CCCCOc2ccccc2)cc1 | inactive: 95.1%
O=[N+]([O-])c1cccc(Oc2ccc([N+](=O)[O-])cc2[N+](=O)[O-])c1 | inactive: 12%
CCN(CC)[P+](c1ccc(OC)cc1OC)(N(CC)CC)N(CC)CC | inactive: 42.3%
O=C(Nc1ccc([N+](=O)[O-])cc1)N(CCBr)CCBr | inactive: 106%
O=P1(N(CCCl)CCCl)Nc2ccccc2N1 | inactive: 117%
ClCCNCc1ccccc1 | inactive: 101%
O=C(O)/C=C\c1cccc(N(CCCl)CCCl)c1 | inactive: 98.8%
O=C(O[C@H]1CN2CCC1CC2)C1NCc2ccccc2[C@@H]1c1ccccc1 (stereo partly specified) | inactive: 108%
CC(=O)Nc1ccc([As](=O)(O)O)c(O)c1 | inactive: 98.8%
ClCCN1CCNCC1 | inactive: 103%

Compound | growth
Cc1cc([N+](=O)[O-])cc([N+](=O)[O-])c1O | inactive: 102%
O=C(OC1CN2CCC1CC2)c1ccccc1 (stereo unspecified) | inactive: 103%
O=C(c1ccc([N+](=O)[O-])cc1)N(CCCl)CCCl | inactive: 118%
CCCCCCCCCCNP(=S)(Cl)Cl | inactive: 103%
COc1cc([N+](=O)[O-])c(Nc2ccc(Cl)cc2[N+](=O)[O-])c([N+](=O)[O-])c1 | inactive: 77%
O=[As]c1ccc(S(=O)(=O)Nc2ccccc2)cc1 (stereo unspecified) | active: 4.73%
Cc1ccc(S(=O)(=O)CN(CCCl)CCCl)cc1 | inactive: 114%
CCCN(CCCl)C1c2ccccc2-c2ccccc21 | inactive: 103%
CC(Cl)CN(CC(C)Cl)C(=O)c1ccccc1 (stereo unspecified) | inactive: 100%
CC(Cl)CN(CC(C)Cl)C(=O)OCC(N)C(=O)O (stereo unspecified) | inactive: 100% and inactive: 113%
C[As](=O)(O)c1cccc(C(=O)O)c1 | inactive: 104%
Cc1ccc(S(=O)(=O)N(CCCN)CCCc2c(C)nc(N)[nH]c2=O)cc1 | inactive: 100%
Cn1c(COc2ccc([N+](=O)[O-])cc2[N+](=O)[O-])cnc1[N+](=O)[O-] | inactive: 72.2%
O=[N+]([O-])c1ccc(CCCCCCc2ccc([N+](=O)[O-])cc2[N+](=O)[O-])c([N+](=O)[O-])c1 | inactive: 90.8%
CCSC(O)C(Cl)(Cl)Cl (stereo unspecified) | inactive: 96.5%
O=[N+]([O-])c1cc(Cl)cc([N+](=O)[O-])c1O | inactive: 95.8%
OP1OCCO1 | inactive: 105%
N#CC(C#N)=C(C#N)N(CCCl)CCCl | inactive: 98.1%
CC[C@H](C)[C@@H]1NC(=O)/C(=C(\C)O)C1=O | inactive: 103%
